Laboratory results from patent publication US20090104257A1 (priority 2007, published 2009).

Experiment: Concentration of vancomycin in the lungs of infected mice (Example 9)

CN[C@H](CC(C)C)C(=O)N[C@H]1C(=O)N[C@@H](CC(N)=O)C(=O)N[C@H]2C(=O)N[C@H]3C(=O)N[C@H](C(=O)N[C@H](C(=O)O)c4cc(O)cc(O)c4-c4cc3ccc4O)[C@H](O)c3ccc(c(Cl)c3)Oc3cc2cc(c3O[C@@H]2O[C@H](CO)[C@@H](O)[C@H](O)[C@H]2O[C@H]2C[C@](C)(N)[C@H](O)[C@H](C)O2)Oc2ccc(cc2Cl)[C@H]1O [Vancomycin, vancomycin]
initial mean concentration of vancomycin in the lungs (30 min after IP injection 6 mg/kg, calculated from 4.5% deposition of injected dose in normal lungs): 48 μg/g of lung | concentration of vancomycin in the lungs (IP injections, 4 days after the end of therapy): No detectable concentrations
